Laboratory results published in publication PMC9727182, “Identification of pharmacokinetic markers for safflower injection using a combination of system pharmacology, multicomponent pharmacokinetics, and quantitative proteomics study” (Frontiers in Pharmacology, 2022).

Assay: Stability of 6 compounds of SI in rat plasma
Conditions: spiked 40 ng/mL
Excerpt: The LC-MS method was validated by linearity, limits of detection (LOD), limits of quantification (LOQ), precision, accuracy, extraction recovery, matrix effect and stability of the 6 ingredients in rat plasma. Calibration curves were plotted using weighted linear regression of the peak area ratio of analyte to the IS against the corresponding nominal concentration of the analyte. LOD and LOQ were defined as the detectable concentration at which the ratio of signal to noise was more than 3 and 10, respectively. Intra- and inter-day accuracy and precision were assessed by detecting quality control (QC) samples using five replicates of rat samples at three concentration levels on one or three validation days, respectively. Accuracy and precision were expressed by relative error (RE) and relative standard deviation (RSD), respectively. The extraction recovery and matrix effect of the 6 components at above-mentioned three concentration levels were determined. Stability was assessed under the condition of placing un-treated plasma samples at room temperature for 6 h, and extracted plasma samples in auto-sampler for 10 h, as well as placing plasma samples within freeze-thaw three cycles and at −80 °C for 15 days.

6h at room temperature RE: -10.50%
Compound: O=Cc1ccc(O)cc1 [p-HBA, p-hydroxybenzaldehyde]
